Experimental findings from patent US10947242B2, “[1,2,4]triazolo[1,5and#8208;A]pyrimidine compounds as PDE2 inhibitors” (Janssen Pharmaceutica NV, priority 2016, dated 2021) are described below.

Amino acid sequences for entries named in this document (tags omitted). Residues count along the entry.
UniProt Q01062, whole entry: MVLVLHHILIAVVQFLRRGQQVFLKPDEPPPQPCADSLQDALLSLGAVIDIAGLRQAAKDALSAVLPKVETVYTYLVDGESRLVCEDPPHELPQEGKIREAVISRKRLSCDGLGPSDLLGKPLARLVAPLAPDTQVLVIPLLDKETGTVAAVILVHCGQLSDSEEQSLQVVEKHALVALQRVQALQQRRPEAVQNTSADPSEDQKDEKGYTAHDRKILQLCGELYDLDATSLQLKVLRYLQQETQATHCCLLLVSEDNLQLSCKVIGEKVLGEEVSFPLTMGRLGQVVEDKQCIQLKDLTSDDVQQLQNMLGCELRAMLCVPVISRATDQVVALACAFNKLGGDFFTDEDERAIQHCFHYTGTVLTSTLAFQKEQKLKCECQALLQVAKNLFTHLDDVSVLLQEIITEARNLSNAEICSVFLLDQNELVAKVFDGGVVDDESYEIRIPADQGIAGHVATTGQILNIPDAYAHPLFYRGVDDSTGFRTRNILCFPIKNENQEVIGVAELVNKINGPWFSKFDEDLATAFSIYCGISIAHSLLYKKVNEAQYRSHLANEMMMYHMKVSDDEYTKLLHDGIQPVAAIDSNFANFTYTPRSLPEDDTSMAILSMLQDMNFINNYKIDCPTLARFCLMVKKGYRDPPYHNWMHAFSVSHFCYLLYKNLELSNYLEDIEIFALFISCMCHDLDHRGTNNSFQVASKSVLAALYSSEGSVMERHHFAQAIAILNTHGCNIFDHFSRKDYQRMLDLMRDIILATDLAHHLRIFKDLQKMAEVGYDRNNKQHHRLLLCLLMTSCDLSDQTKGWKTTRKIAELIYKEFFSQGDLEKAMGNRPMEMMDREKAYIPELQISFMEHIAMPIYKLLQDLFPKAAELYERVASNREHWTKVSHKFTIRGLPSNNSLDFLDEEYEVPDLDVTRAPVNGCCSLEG
UniProt Q9Y233, 267-1055: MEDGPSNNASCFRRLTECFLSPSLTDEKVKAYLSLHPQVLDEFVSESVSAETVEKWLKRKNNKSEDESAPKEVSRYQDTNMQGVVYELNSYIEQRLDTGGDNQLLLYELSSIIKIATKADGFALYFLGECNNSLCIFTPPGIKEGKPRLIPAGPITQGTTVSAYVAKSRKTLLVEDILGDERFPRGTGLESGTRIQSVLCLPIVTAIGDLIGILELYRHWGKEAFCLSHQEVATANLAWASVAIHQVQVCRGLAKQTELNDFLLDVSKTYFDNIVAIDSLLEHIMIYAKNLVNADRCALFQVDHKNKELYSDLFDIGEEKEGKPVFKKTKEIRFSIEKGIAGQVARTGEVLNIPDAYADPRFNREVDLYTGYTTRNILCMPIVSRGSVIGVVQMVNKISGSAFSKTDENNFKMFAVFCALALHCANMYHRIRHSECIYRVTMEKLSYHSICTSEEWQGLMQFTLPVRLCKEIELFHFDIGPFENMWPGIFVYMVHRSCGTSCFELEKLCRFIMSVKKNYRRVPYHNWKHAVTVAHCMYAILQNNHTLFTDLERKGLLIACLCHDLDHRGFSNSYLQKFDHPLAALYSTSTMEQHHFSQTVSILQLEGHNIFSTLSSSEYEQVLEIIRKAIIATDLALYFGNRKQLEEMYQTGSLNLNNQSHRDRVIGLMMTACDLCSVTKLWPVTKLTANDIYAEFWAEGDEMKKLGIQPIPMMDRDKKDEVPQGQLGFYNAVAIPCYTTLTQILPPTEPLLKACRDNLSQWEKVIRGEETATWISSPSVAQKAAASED
UniProt Q14432, whole entry: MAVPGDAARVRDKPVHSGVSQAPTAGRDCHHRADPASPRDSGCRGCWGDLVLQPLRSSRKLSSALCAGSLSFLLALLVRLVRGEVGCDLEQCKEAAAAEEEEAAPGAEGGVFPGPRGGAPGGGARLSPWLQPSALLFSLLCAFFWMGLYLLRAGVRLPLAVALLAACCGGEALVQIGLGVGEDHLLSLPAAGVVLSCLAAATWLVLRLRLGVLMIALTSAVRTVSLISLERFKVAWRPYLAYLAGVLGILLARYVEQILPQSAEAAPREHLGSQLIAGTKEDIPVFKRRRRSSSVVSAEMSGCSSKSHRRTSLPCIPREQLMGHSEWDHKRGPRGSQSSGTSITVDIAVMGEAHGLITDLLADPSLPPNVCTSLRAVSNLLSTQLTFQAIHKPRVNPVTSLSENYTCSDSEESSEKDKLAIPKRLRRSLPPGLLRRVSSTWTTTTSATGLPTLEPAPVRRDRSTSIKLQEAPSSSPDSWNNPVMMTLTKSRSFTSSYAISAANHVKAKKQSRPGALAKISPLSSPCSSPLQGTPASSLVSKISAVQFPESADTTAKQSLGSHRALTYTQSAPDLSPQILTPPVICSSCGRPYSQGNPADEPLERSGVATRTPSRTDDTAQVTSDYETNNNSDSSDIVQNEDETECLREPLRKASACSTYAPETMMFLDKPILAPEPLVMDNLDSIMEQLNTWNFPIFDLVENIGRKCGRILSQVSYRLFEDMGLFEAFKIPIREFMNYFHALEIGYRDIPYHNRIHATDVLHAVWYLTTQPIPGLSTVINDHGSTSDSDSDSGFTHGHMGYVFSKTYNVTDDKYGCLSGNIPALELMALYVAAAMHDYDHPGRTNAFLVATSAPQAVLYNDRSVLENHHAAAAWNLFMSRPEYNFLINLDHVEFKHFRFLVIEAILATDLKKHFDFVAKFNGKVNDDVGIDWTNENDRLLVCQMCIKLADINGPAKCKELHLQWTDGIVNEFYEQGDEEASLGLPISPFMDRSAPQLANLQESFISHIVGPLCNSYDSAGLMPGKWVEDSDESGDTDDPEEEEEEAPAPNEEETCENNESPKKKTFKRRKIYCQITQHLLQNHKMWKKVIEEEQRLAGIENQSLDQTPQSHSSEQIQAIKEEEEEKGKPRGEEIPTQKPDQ
UniProt O00408, whole entry: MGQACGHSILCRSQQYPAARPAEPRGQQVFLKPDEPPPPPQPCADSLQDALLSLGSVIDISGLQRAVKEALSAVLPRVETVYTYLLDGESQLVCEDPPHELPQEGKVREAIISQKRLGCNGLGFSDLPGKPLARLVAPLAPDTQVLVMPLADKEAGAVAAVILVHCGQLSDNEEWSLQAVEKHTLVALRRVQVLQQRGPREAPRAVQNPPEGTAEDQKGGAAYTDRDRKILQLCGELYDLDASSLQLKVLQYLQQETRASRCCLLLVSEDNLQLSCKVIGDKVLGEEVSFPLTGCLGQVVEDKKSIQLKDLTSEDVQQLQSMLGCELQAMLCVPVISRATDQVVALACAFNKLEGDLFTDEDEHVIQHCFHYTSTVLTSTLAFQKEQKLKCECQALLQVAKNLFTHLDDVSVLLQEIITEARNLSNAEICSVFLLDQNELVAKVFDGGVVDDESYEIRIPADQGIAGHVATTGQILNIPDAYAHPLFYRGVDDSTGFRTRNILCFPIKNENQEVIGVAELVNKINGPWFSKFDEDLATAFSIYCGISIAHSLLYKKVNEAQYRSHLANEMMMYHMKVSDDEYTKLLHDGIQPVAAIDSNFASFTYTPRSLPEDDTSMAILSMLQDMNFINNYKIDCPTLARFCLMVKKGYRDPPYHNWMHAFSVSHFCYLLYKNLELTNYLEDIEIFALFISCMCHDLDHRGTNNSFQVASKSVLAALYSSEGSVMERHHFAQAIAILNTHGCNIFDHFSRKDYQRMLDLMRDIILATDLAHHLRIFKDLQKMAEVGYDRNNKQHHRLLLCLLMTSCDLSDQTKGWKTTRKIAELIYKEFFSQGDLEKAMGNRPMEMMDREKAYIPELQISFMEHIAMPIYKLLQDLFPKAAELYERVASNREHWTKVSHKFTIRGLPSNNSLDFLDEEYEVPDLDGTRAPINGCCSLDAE
UniProt Q9QYJ6, whole entry: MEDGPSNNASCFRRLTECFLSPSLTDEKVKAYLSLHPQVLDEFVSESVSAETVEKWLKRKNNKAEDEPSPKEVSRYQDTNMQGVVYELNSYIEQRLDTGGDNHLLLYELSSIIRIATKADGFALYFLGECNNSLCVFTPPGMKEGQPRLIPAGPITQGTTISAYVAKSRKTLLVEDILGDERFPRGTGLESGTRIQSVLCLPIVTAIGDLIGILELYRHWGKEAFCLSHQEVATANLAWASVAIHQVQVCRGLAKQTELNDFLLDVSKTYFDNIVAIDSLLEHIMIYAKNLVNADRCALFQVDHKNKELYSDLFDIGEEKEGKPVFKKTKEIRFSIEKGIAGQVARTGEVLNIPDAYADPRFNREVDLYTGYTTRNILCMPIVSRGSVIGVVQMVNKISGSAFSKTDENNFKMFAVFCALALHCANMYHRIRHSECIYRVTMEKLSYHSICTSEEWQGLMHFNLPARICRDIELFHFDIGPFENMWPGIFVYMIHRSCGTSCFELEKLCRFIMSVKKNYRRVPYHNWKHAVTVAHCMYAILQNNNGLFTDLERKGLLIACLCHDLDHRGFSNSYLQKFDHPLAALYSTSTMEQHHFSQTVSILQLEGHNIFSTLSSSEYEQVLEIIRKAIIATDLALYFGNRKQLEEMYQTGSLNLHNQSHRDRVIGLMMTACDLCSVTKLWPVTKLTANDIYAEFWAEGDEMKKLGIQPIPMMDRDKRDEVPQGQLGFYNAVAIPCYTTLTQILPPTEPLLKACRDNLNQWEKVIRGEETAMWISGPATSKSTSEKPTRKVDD

The target of one test is PDE2A (Rattus norvegicus, UniProt Q01062). Put plainly: PDE2 occupancy by test compounds, ex-vivo autoradiography with [3H]B-17a. To be noted: percentage receptor occupancy, striatum.
Test [1] has as its target Human recombinant PDE10A (hPDE10A) (Homo sapiens, UniProt Q9Y233). Put plainly: In vitro assay PDE10A, human clone (SPA, 3H-cAMP hydrolysis). It counts as biochemical. The following applies: for hPDE10A2 or rPDE10A2 Emax / hPDE10A2 or rPDE10A2 pIC50: human clone by default (no (r) mark); for hPDE10A2 Emax / hPDE10A2 pIC50: human clone (h), default.
Test [2] concerns the target Human recombinant PDE3A (hPDE3A) (Homo sapiens, UniProt Q14432). In words: In vitro assay PDE3A (SPA, 3H-cAMP hydrolysis).
Test [3] addresses Human recombinant PDE2A (hPDE2A) (Homo sapiens, UniProt O00408). In words: In vitro assay PDE2A (SPA, 3H-cGMP hydrolysis).
The target in test [4] is Rat recombinant PDE10A (rPDE10A2) (Rattus norvegicus, UniProt Q9QYJ6). Put plainly: In vitro assay PDE10A, rat clone (SPA, 3H-cAMP hydrolysis).
Setting [5] is: human recombinant PDE2A, 10 μM cGMP substrate.

Like-named read-outs stand apart in the source and are kept apart here.

On PDE2A (route PO (oral)), `COc1c(C(=O)N2CC[C@@H](C)[C@H](c3cc(C(F)F)nc4ncnn34)C2)cc(C)nc1C` came in with a PDE2 Occupancy at 10 mg/kg of 23%. Besides, in test [1], the hPDE10A2 or rPDE10A2 Emax is 93% and the “hPDE10A2 or rPDE10A2 pIC50” value turned out to be 6.26. In addition, the hPDE3B Emax in test [2] amounted to 79%. Besides, in test [3], the hPDE2A Emax came to 98% and the “hPDE2A pIC50” value amounted to 8.62.

Compound `Cc1cc([C@H]2CC[C@H]3CC[C@@H]2N3C(=O)c2ccc3ncsc3c2)n2ncnc2n1` had a PDE2 Occupancy at 10 mg/kg on PDE2A (route SC (subcutaneous)) of 27%. In addition, in test [1], the hPDE10A2 Emax is 98%. The “hPDE10A2 pIC50” value in test [1] was determined as 7.32. Also, the hPDE3B Emax in test [2] and in test [2] (head prints hPDE3B) was 55% each time. In addition, the hPDE2A Emax in test [3] and in test [3] (human recombinant PDE2A) was 100% in each case. Also, the “hPDE2A pIC50” value in test [3] and in test [3] (setting [5]) was 9.29 throughout.

Consider `CC(=O)N1CCc2cc(C(=O)N3CCCC(C)(c4cc(C(F)F)nc5ncnn45)C3)ccc21` (centres unmarked), for which the “rPDE10A2 Emax” value in test [4] (rat clone (r)) was 13 (r); in test [4] (rat clone, indicated as (r)), 13 (r). Also, the “rPDE10A2 pIC50” value in test [4] (rat clone (r)) is <5 (r); in test [4] (rat clone, indicated as (r)), <5 (r). In addition, the hPDE3B Emax in test [2] and in test [2] (head prints hPDE3B) was 48% in each case. The hPDE2A Emax in test [3] and in test [3] (human recombinant PDE2A) was 88% each time. Further, the “hPDE2A pIC50” value in test [3] and in test [3] (setting [5]) was 6.79 each time.

Take `CC(=O)N1CCc2cc(C(=O)N3CCCC(C)(c4ccnc5ncnn45)C3)ccc21` (centres unmarked): the “rPDE10A2 Emax” value was 21 (r) in test [4] (rat clone (r)) and 21 (r) in test [4] (rat clone, indicated as (r)). In addition, the “rPDE10A2 pIC50” value in test [4] (rat clone (r)) was 5.32 (r); in test [4] (rat clone, indicated as (r)) it was 5.32 (r). Further, the “hPDE10A2 Emax” value in test [1] is 62 (h). The “hPDE10A2 pIC50” value in test [1] was 5.23 (h). Moreover, the hPDE3B Emax in test [2] and in test [2] (head prints hPDE3B) was 62% in each case. Further, the hPDE2A Emax in test [3] and in test [3] (human recombinant PDE2A) was 92% in each case. The “hPDE2A pIC50” value in test [3] and in test [3] (setting [5]) was 7.27 throughout.

On to `C[C@H]1CCN(C(=O)c2ccc3c(ccn3CCF)c2)C[C@@H]1c1cc(C(F)F)nc2ncnn12`, for which, in test [1], the hPDE10A2 Emax worked out at 63%, the “hPDE10A2 pIC50” value turned out to be 5.13, the hPDE10A2 or rPDE10A2 Emax came out at 63% and the “hPDE10A2 or rPDE10A2 pIC50” value turned out to be 5.13. In addition, the hPDE3B Emax in test [2] is 45%. For the same compound, the hPDE3B Emax in test [2] (head prints hPDE3B) was found to be 45%. Further, in test [3], the hPDE2A Emax was found to be 82% and the “hPDE2A pIC50” value is reported as 6.58. In addition, the hPDE2A Emax in test [3] (human recombinant PDE2A) was determined as 82%. Besides, the “hPDE2A pIC50” value in test [3] (setting [5]) is 6.58.
